Literature values as cited in US7001892B1, “Pharmaceutical materials and methods for their preparation and use” (Purdue Research Foundation, priority 1999, dated 2006).

What was measured:
[1] = cited from earlier work
[2] = interferon alfa-2a; cited from earlier work

Substance	storage time of lyophilized powder ([1]; at 25° C.)	reconstituted solution stable for ([1]; reconstituted with sterile water, refrigerated temperatures)	specific activity [2]
Avonex	Formulation: Lyophilized powder (stored refrigerated or at 25 °C for < 30 days) which is reconstituted	approximately 7.3 (recon solution is stable for 6 hours at refrigerated temperatures). Weekly intramuscular	–
Roferon-A	–	–	Additional Information: Cost of therapy is $59,200 (28 mg protein over 1 year). Specific activity is 200 million international units per mg protein
